Earlier results, collected in patent US6060458A, “Oligodeoxyribonucleotides comprising O^6 -benzylguanine and their use” (The United States of America as represented by the …, priority 1998, dated 2000).
Where a chain is given by its changes, count along the chain named.

How the values were obtained:
[1] = target: T1, mutant human alkyltransferase P140A (Homo sapiens, UniProt P16455, P140A); conditions: read-out: ED50 for inactivation of AGT, data previously published; cited from earlier work
T1 construct: made in house; E. coli by own knowledge of pIN vectors
T1 sequence (P16455 1-207 P140A): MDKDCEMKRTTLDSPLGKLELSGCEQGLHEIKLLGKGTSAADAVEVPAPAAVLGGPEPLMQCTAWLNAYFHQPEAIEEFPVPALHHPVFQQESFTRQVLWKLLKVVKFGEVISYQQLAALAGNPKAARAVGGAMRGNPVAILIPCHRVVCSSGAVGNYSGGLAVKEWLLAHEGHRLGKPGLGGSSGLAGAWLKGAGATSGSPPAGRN

[2] = target: T2, mutant human alkyltransferase G156A (Homo sapiens, UniProt P16455, G156A); conditions: read-out: ED50 for inactivation of AGT, data previously published; cited from earlier work
T2 construct: made in house; E. coli by own knowledge of pIN vectors
T2 sequence (P16455 1-207 G156A): T1 sequence (P16455 1-207 P140A) with A140P, G156A

## Nc1nc(OCc2ccccc2)c2[nH]cnc2n1 [O^6 -benzylguanine]
[1]
  IC50: 5 µM
[2]
  IC50: 60 µM
